Data published in the CheMixHub ionic liquid set.

Test: xn = mol fraction of the nth substance listed
Conditions: 100 kPa

CCC[N+](CCC)(CCC)CCC.[Br-] + CCCCCCCCCCCC[N+](C)(C)C.[Br-] + O
viscosity [mPa·s]
Conditions | x2 = 5.419e-05, x1 = 0.0001802 | x2 = 0.0001084, x1 = 0.0001801 | x2 = 0.0001626, x1 = 0.0001801 | x2 = 0.0002167, x1 = 0.0001801 | x2 = 0.0002709, x1 = 0.0001801 | x2 = 0.0003251, x1 = 0.0001801 | x2 = 0.0003792, x1 = 0.0001801 | x2 = 0.0004334, x1 = 0.0001801 | x2 = 0.0004875, x1 = 0.0001801 | x2 = 0.0005416, x1 = 0.0001801
293.15 K | 1.037 | 1.038 | 1.04 | 1.041 | 1.042 | 1.043 | 1.044 | 1.044 | 1.044 | 1.044
298.15 K | 0.929 | 0.932 | 0.933 | 0.933 | 0.934 | 0.934 | 0.934 | 0.935 | 0.935 | 0.935
303.15 K | 0.822 | 0.822 | 0.824 | 0.824 | 0.825 | 0.825 | 0.825 | 0.825 | 0.826 | 0.826
308.15 K | 0.74 | 0.741 | 0.743 | 0.743 | 0.744 | 0.744 | 0.744 | 0.745 | 0.745 | 0.745
313.15 K | 0.673 | 0.675 | 0.676 | 0.677 | 0.677 | 0.678 | 0.678 | 0.678 | 0.678 | 0.678
318.15 K | 0.618 | 0.62 | 0.621 | 0.621 | 0.622 | 0.622 | 0.622 | 0.622 | 0.622 | 0.622
